# Membrane permeability of cyclic peptides

Source: CycPeptMPDB (Li et al. 2023), which took these values from Kelly et al. 2021, doi:10.1021/jacs.0c06115.

PAMPA measures passive passage through an artificial lipid membrane. Permeability is given as log10 of P in cm/s; higher (less negative) is more permeable.

SMILES	PAMPA (log10 cm/s)
CC(=O)N1CCC[C@H]1C(=O)N(C)[C@@H](CC(C)C)C(=O)N[C@@H]1C(=O)N[C@H](CC(C)C)C(=O)N[C@@H](CC(C)C)C(=O)N[C@@H](CC(C)C)C(=O)N(C)[C@@H](C)C(=O)N[C@@H](CC(C)C)C(=O)N2CCC[C@H]2C(=O)O[C@@H]1C	-6.56
CC(=O)N1CCC[C@H]1C(=O)N[C@@H]1C(=O)N(C)[C@H](CC(C)C)C(=O)N(C)[C@@H](CC(C)C)C(=O)N(C)[C@@H](CC(C)C)C(=O)N(C)[C@H](CC(C)C)C(=O)N(C)[C@H](C)C(=O)N[C@@H](CC(C)C)C(=O)N2CCC[C@@H]2C(=O)O[C@@H]1C	-5.22
CC(=O)N1CCC[C@@H]1C(=O)N(C)[C@@H](CC(C)C)C(=O)N[C@@H]1C(=O)N(C)[C@H](CC(C)C)C(=O)N(C)[C@H](CC(C)C)C(=O)N[C@H](CC(C)C)C(=O)N(C)[C@@H](C)C(=O)N[C@@H](CC(C)C)C(=O)N2CCC[C@@H]2C(=O)O[C@@H]1C	-5.32
CC(=O)N1CCC[C@@H]1C(=O)N(C)[C@H](CC(C)C)C(=O)N[C@@H]1C(=O)N(C)[C@@H](CC(C)C)C(=O)N[C@H](CC(C)C)C(=O)N[C@H](CC(C)C)C(=O)N(C)[C@H](C)C(=O)N[C@H](CC(C)C)C(=O)N2CCC[C@H]2C(=O)O[C@@H]1C	-6.22
CC(=O)N1CCC[C@@H]1C(=O)N(C)[C@H](CC(C)C)C(=O)N[C@@H]1C(=O)N(C)[C@@H](CC(C)C)C(=O)N[C@@H](CC(C)C)C(=O)N[C@@H](CC(C)C)C(=O)N[C@@H](C)C(=O)N[C@H](CC(C)C)C(=O)N2CCC[C@H]2C(=O)O[C@@H]1C	-7.35
CC(=O)N[C@@H]1C(=O)N2CCC[C@H]2C(=O)N(C)[C@H](CC(C)C)C(=O)N(C)[C@@H](CC(C)C)C(=O)N(C)[C@@H](CC(C)C)C(=O)N(C)[C@@H](CC(C)C)C(=O)N(C)[C@@H](C)C(=O)N[C@@H](CC(C)C)C(=O)N2CCC[C@@H]2C(=O)O[C@@H]1C	-5.31
CC(=O)N1CCC[C@H]1C(=O)N(C)[C@H](CC(C)C)C(=O)N[C@@H]1C(=O)N[C@H](CC(C)C)C(=O)N[C@H](CC(C)C)C(=O)N[C@H](CC(C)C)C(=O)N[C@@H](C)C(=O)N[C@@H](CC(C)C)C(=O)N2CCC[C@H]2C(=O)O[C@@H]1C	-6.62
CC(=O)N1CCC[C@H]1C(=O)N(C)[C@H](CC(C)C)C(=O)N[C@@H]1C(=O)N(C)[C@H](CC(C)C)C(=O)N(C)[C@H](CC(C)C)C(=O)N[C@H](CC(C)C)C(=O)N(C)[C@H](C)C(=O)N[C@H](CC(C)C)C(=O)N2CCC[C@@H]2C(=O)O[C@@H]1C	-5.52
CC(=O)N1CCC[C@H]1C(=O)N[C@@H]1C(=O)N[C@H](CC(C)C)C(=O)N[C@H](CC(C)C)C(=O)N[C@@H](CC(C)C)C(=O)N(C)[C@@H](CC(C)C)C(=O)N(C)[C@@H](C)C(=O)N[C@@H](CC(C)C)C(=O)N2CCC[C@@H]2C(=O)O[C@@H]1C	-6.16
CC(=O)N1CCC[C@H]1C(=O)N(C)[C@H](CC(C)C)C(=O)N[C@@H]1C(=O)N[C@@H](CC(C)C)C(=O)N[C@H](CC(C)C)C(=O)N[C@H](CC(C)C)C(=O)N[C@@H](C)C(=O)N[C@@H](CC(C)C)C(=O)N2CCC[C@H]2C(=O)O[C@@H]1C	-6.66
CC(=O)N1CCC[C@H]1C(=O)N[C@@H]1C(=O)N[C@H](CC(C)C)C(=O)N[C@@H](CC(C)C)C(=O)N(C)[C@@H](CC(C)C)C(=O)N[C@H](CC(C)C)C(=O)N(C)[C@H](C)C(=O)N[C@@H](CC(C)C)C(=O)N2CCC[C@@H]2C(=O)O[C@@H]1C	-5.28
CC(=O)N1CCC[C@H]1C(=O)N(C)[C@H](CC(C)C)C(=O)N[C@@H]1C(=O)N[C@@H](CC(C)C)C(=O)N(C)[C@H](CC(C)C)C(=O)N[C@H](CC(C)C)C(=O)N(C)[C@H](C)C(=O)N[C@H](CC(C)C)C(=O)N2CCC[C@H]2C(=O)O[C@@H]1C	-6.21

Extract of 2 entries:

{"smiles": "CC(=O)N1CCC[C@H]1C(=O)N(C)[C@@H](CC(C)C)C(=O)N[C@@H]1C(=O)N[C@H](CC(C)C)C(=O)N[C@@H](CC(C)C)C(=O)N[C@@H](CC(C)C)C(=O)N(C)[C@@H](C)C(=O)N[C@@H](CC(C)C)C(=O)N2CCC[C@H]2C(=O)O[C@@H]1C", "PAMPA (log10 cm/s)": "-6.56"}
{"smiles": "CC(=O)N1CCC[C@H]1C(=O)N[C@@H]1C(=O)N[C@H](CC(C)C)C(=O)N[C@H](CC(C)C)C(=O)N[C@@H](CC(C)C)C(=O)N(C)[C@@H](CC(C)C)C(=O)N(C)[C@@H](C)C(=O)N[C@@H](CC(C)C)C(=O)N2CCC[C@@H]2C(=O)O[C@@H]1C", "PAMPA (log10 cm/s)": "-6.16"}

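Lipid, pH, incubation time, direction and concentration are not recorded in the data file. The list need not hold all peptides of the study. Entries at the database's floor value (log10 P of -10) are not listed.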